In patent US9173923B2, “Modulating innate immune cell activity by lunasin and selected cytokines” (Indiana University Research & Technology Corporation, priority 2011, dated 2015):

System: mouse NK cells
Assay: IFNγ produced by NK cells from tumor-bearing mice with or without etoposide chemotherapy (ELISA)
Format: cell-based
Details: reduced Stat4; mouse IL-12 2 ng/ml or human IL-2 50 units/ml, lunasin 20 μM; 1 day
Procedure: FIG. 8 IFNg produced by NK cells from tumor-bearing mice with or without chemotherapy. Mouse NK cells were positively selected from spleens of tumor-bearing mice with (+Eto) or without (−Eto) chemotherapeutic drug etoposide. Isolated NK cells were stimulated with mouse IL-12 at 2 ng/ml with (+) or without (−) lunasin peptide (A) or human IL-2 at 50 units/ml with (+) or without (−) lunasin at 20 μM (B). The production of IFNγ in the supernatant after 1 day of stimulation was determined using ELISA. Results are presented as mean±SD from 3 mice. ND is not detectable.
We previously reported that heavily-treated NHL patients acquired STAT4 deficiency as a consequence of chemotherapy, which contributes to impaired IFNγ production following IL-12immunotherapy. Since IL-2 mediates its biological function independent of STAT4 {Lin. 2000 #648} and lunasin works synergistically with IL-2 (FIGS. 1 and 3), we wanted to test whether IL-2 alone or the combination of lunasin and IL-2 can circumvent the deficiency of IFNγ produced by NK cells that are refractory to IL-12 stimulation due to chemotherapy-induced STAT4 deficiency. In our mouse model reduced Stat4 was found in NK cells from tumor-bearing mice following chemotherapy with etoposide.

## IL-2
  IFNγ production by NK cells from tumor-bearing mice following chemotherapy (+etoposide): undetectable levels of IFNγ production
